Assay results reported in patent US20130123222A1, “Synergistic Anti-Cancer Activity of SR16388 with Anti-Mitotic Drugs” (SRI INTERNATIONAL, INC., priority 2011, published 2013).

Tested on: panel of 48 to 60 cell lines
Assay: 5×4 combination screen with SR16388; synergism hit rate by algorithm (Z score)
Type: cell-based
Conditions: in combination with SR16388, all 20 (5×4) dose combinations
Experimental: SR16388 was synthesized in house.
5) A “combination score” was assigned to each specific combination (Ca1b1x): C=1 if Za1b1x>3*SD and C=0 if Za1b1x≦3*SD score);
6) Hit rate of each combination was calculated by comparing the sum of the combination scores of all 20 (5×4) dose combinations with all cell lines to the total number of data points of that specific combination;
7) Hit rate were ranked from high to low to identify potential synergistic combinations.

CC(=O)O[C@H]1C(=O)[C@@]2(C)[C@H]([C@H](OC(=O)c3ccccc3)[C@]3(O)C[C@H](OC(=O)[C@H](O)[C@@H](NC(=O)c4ccccc4)c4ccccc4)C(C)=C1C3(C)C)[C@]1(OC(C)=O)CO[C@@H]1C[C@@H]2O [Paclitaxel]
% hit/combo: 2.25%
